Experimental data published in patent publication US12533408B2, “Treatment regimen for the treatment of autoimmune disorders” (Merck Patent GmbH, priority 2020, dated 2026).

Key:
[1] = tested on: T-cell subtypes, NK cells; test: Longitudinal blood analysis of T-cell subsets and NK cells (MAGNIFY-MS)
lymphocytes = test: Absolute lymphocyte count (ALC) in vaccinated MAGNIFY-MS patients; format: in vivo, human; settings: month 6
[2] = Patient Australia VZV-70056800221260001, month 0, 8.6 wk after Zostavax, 1.3 wk before first Mavenclad dose
[3] = Patient Australia VZV-70056800221260001, month 3, 24.6 wk after Zostavax, 14.7 wk after first Mavenclad dose
[4] = Patient Canada VZV-70056800222530003, month 0, 9.7 wk after Shingrix, before first Mavenclad dose
[5] = Patient Canada VZV-70056800222530003, month 3, 23.0 wk after Shingrix, 13.3 wk after first Mavenclad dose
[6] = Patient Finland VZV-70056800221620004, month 0, 6.4 wk after Zostavax, before first Mavenclad dose
[7] = Patient Finland VZV-70056800221620004, month 3, 18.3 wk after Zostavax, 11.9 wk after first Mavenclad dose
[8] = Patient Finland VZV-70056800221620004, month 6, 32.3 wk after Zostavax, 25.9 wk after first Mavenclad dose
[9] = Patient Finland VZV-70056800221620004, month 12, 61.3 wk after Zostavax, 54.9 wk after first Mavenclad dose
[10] = Patient Finland VZV-70056800221620004, month 15, 74.3 wk after Zostavax, 13.0 wk after first dose of previous Mavenclad course

SMILES: Nc1nc(Cl)nc2c1ncn2[C@H]1C[C@H](O)[C@@H](CO)O1 [cladribine tablets, Cladribine]
- CD4+ T-cells, change vs baseline ([1]; Month 1): −76%
- CD8+ T-cells, change vs baseline ([1]; Month 1): −22%
- Total CD4+ T cells, depletion (minor effects) ([1]; Month 1): 30%
- Total CD8+ T cells, depletion (minor effects) ([1]; Month 1): 20%
- CD4+ T-cells, change vs baseline ([1]; Month 2): −90%
- CD8+ T-cells, change vs baseline ([1]; Month 2): −37%
- CD4+ CM, change vs baseline ([1]; Month 3): −56%
- CD4+ EffM, change vs baseline ([1]; Month 3): −40%
- CD4+ T-cells, change vs baseline ([1]; Month 3): −76%
- CD4+ Treg, change vs baseline ([1]; Month 3): −35%
- CD8+ CM, change vs baseline ([1]; Month 3): −51%
- CD8+ EfM, change vs baseline ([1]; Month 3): −40%
- CD8+ T-cells, change vs baseline ([1]; Month 3): −48%
- Naïve CD4+ T cells, change vs baseline ([1]; Month 3): −63%
- Naïve CD8 T-cells, change vs baseline ([1]; Month 3): −76%
- CD4+ TH1, change vs baseline ([1]; Month 3, listed as Cladribine): −56%
- CD4+TH17, change vs baseline ([1]; Month 3, listed as Cladribine): −37%
- CD4+ TH1, change vs baseline ([1]; Month 3, listed as cladribine): −56%
- CD4+TH17, change vs baseline ([1]; Month 3, listed as cladribine): −37%
- CD4+ CM, change vs baseline ([1]; Month 6): −59%
- CD4+ EffM, change vs baseline ([1]; Month 6): −38%
- CD4+ TH1, change vs baseline ([1]; Month 6): −55%
- CD4+ Treg, change vs baseline ([1]; Month 6): −43%
- CD4+TH17, change vs baseline ([1]; Month 6): −42%
- CD8+ CM, change vs baseline ([1]; Month 6): −52%
- CD8+ EfM, change vs baseline ([1]; Month 6): −38%
- Naïve CD4+ T cells, change vs baseline ([1]; Month 6): −67%
- Naïve CD8 T-cells, change vs baseline ([1]; Month 6): −75%
- CD4+ T-cells, change vs baseline ([1]; Month 6, listed as Cladribine): −57%
- CD8+ T-cells, change vs baseline ([1]; Month 6, listed as Cladribine): −50%
- CD4+ T-cells, change vs baseline ([1]; Month 6, listed as cladribine): −60%
- CD8+ T-cells, change vs baseline ([1]; Month 6, listed as cladribine): −50%
- CD4+ CM, change vs baseline ([1]; Month 12): −48%
- CD4+ EffM, change vs baseline ([1]; Month 12): −27%
- CD4+ T-cells, change vs baseline ([1]; Month 12): −11%
- CD4+ TH1, change vs baseline ([1]; Month 12): −46%
- CD4+ Treg, change vs baseline ([1]; Month 12): −36%
- CD4+TH17, change vs baseline ([1]; Month 12): −29%
- CD8+ CM, change vs baseline ([1]; Month 12): −35%
- CD8+ EfM, change vs baseline ([1]; Month 12): −27%
- CD8+ T-cells, change vs baseline ([1]; Month 12): −46%
- Naïve CD4+ T cells, change vs baseline ([1]; Month 12): −59%
- Naïve CD8 T-cells, change vs baseline ([1]; Month 12): −60%
- CD3+ TC [1, 2]: 880 cells/μL
- CD4+ TC [1, 2]: 586 cells/μL
- CD4+ Th1 TC [1, 2]: 263.0 cells/μL
- CD4+ Th2 TC [1, 2]: 220.8 cells/μL
- CD4+ Th 17 TC [1, 2]: 7.2 cells/μL
- CD4+ Treg [1, 2]: 38.4 cells/μL
- CD4+ cent. mem. TC [1, 2]: 339.5 cells/μL
- CD4+ eff. mem. TC [1, 2]: 134.5 cells/μL
- CD4+ naïve TC [1, 2]: 111.3 cells/μL
- CD8+ TC [1, 2]: 282 cells/μL
- CD8+ cent. mem. TC [1, 2]: 34.1 cells/μL
- CD8+ eff. mem. TC [1, 2]: 89.0 cells/μL
- CD8+ naïve TC [1, 2]: 107.8 cells/μL
- CD8+ term. diff. effector TC [1, 2]: 51.1 cells/μL
- CD16+ CD56+ NKC [1, 2]: 77 cells/μL
- CD3+ TC [1, 3]: 669 cells/μL
- CD4+ TC [1, 3]: 464 cells/μL
- CD4+ Th1 TC [1, 3]: 209.6 cells/μL
- CD4+ Th2 TC [1, 3]: 162.8 cells/μL
- CD4+ Th 17 TC [1, 3]: 8.2 cells/μL
- CD4+ Treg [1, 3]: 33.8 cells/μL
- CD4+ cent. mem. TC [1, 3]: 257.7 cells/μL
- CD4+ eff. mem. TC [1, 3]: 132.9 cells/μL
- CD4+ naïve TC [1, 3]: 72.3 cells/μL
- CD8+ TC [1, 3]: 196 cells/μL
- CD8+ cent. mem. TC [1, 3]: 27.5 cells/μL
- CD8+ eff. mem. TC [1, 3]: 67.2 cells/μL
- CD8+ naïve TC [1, 3]: 46.6 cells/μL
- CD8+ term. diff. effector TC [1, 3]: 54.7 cells/μL
- CD16+ CD56+ NKC [1, 3]: 79 cells/μL
- CD3+ TC [1, 4]: 1,634 cells/μL
- CD4+ TC [1, 4]: 956 cells/μL
- CD4+ Th1 TC [1, 4]: 440.8 cells/μL
- CD4+ Th2 TC [1, 4]: 443.1 cells/μL
- CD4+ Th 17 TC [1, 4]: 10.2 cells/μL
- CD4+ Treg [1, 4]: 91.9 cells/μL
- CD4+ cent. mem. TC [1, 4]: 460.6 cells/μL
- CD4+ eff. mem. TC [1, 4]: 238.2 cells/μL
- CD4+ naïve TC [1, 4]: 256.4 cells/μL
- CD8+ TC [1, 4]: 655 cells/μL
- CD8+ cent. mem. TC [1, 4]: 73.9 cells/μL
- CD8+ eff. mem. TC [1, 4]: 183.9 cells/μL
- CD8+ naïve TC [1, 4]: 356.1 cells/μL
- CD8+ term. diff. effector TC [1, 4]: 41.2 cells/μL
- CD16+ CD56+ NKC [1, 4]: 243 cells/μL
- CD3+ TC [1, 5]: 543 cells/μL
- CD4+ TC [1, 5]: 274 cells/μL
- CD4+ Th1 TC [1, 5]: 121.0 cells/μL
- CD4+ Th2 TC [1, 5]: 110.9 cells/μL
- CD4+ Th 17 TC [1, 5]: 7.6 cells/μL
- CD4+ Treg [1, 5]: 39.1 cells/μL
- CD4+ cent. mem. TC [1, 5]: 96.7 cells/μL
- CD4+ eff. mem. TC [1, 5]: 118.0 cells/μL
- CD4+ naïve TC [1, 5]: 59.4 cells/μL
- CD8+ TC [1, 5]: 241 cells/μL
- CD8+ cent. mem. TC [1, 5]: 11.9 cells/μL
- CD8+ eff. mem. TC [1, 5]: 135.6 cells/μL
- CD8+ naïve TC [1, 5]: 45.8 cells/μL
- CD8+ term. diff. effector TC [1, 5]: 47.7 cells/μL
- CD16+ CD56+ NKC [1, 5]: 107 cells/μL
- CD4+ TC [1, 6]: 622 cells/μL
- CD4+ Th1 TC [1, 6]: 254.6 cells/μL
- CD4+ Th2 TC [1, 6]: 312.6 cells/μL
- CD4+ Th 17 TC [1, 6]: 4.5 cells/μL
- CD4+ Treg [1, 6]: 44.8 cells/μL
- CD4+ cent. mem. TC [1, 6]: 273.6 cells/μL
- CD4+ eff. mem. TC [1, 6]: 83.3 cells/μL
- CD4+ naïve TC [1, 6]: 264.2 cells/μL
- CD8+ TC [1, 6]: 408 cells/μL
- CD8+ cent. mem. TC [1, 6]: 38.1 cells/μL
- CD8+ eff. mem. TC [1, 6]: 83.3 cells/μL
- CD8+ naïve TC [1, 6]: 220.9 cells/μL
- CD8+ term. diff. effector TC [1, 6]: 65.7 cells/μL
- CD16+ CD56+ NKC [1, 6]: 165 cells/μL
- CD3+ TC [1, 7]: 397 cells/μL
- CD4+ TC [1, 7]: 192 cells/μL
- CD4+ Th1 TC [1, 7]: 74.7 cells/μL
- CD4+ Th2 TC [1, 7]: 94.1 cells/μL
- CD4+ Th 17 TC [1, 7]: 2.6 cells/μL
- CD4+ Treg [1, 7]: 27.4 cells/μL
- CD4+ cent. mem. TC [1, 7]: 83.9 cells/μL
- CD4+ eff. mem. TC [1, 7]: 40.0 cells/μL
- CD4+ naïve TC [1, 7]: 67.0 cells/μL
- CD8+ TC [1, 7]: 185 cells/μL
- CD8+ cent. mem. TC [1, 7]: 18.8 cells/μL
- CD8+ eff. mem. TC [1, 7]: 80.7 cells/μL
- CD8+ naïve TC [1, 7]: 46.8 cells/μL
- CD8+ term. diff. effector TC [1, 7]: 38.7 cells/μL
- CD16+ CD56+ NKC [1, 7]: 112 cells/μL
- CD3+ TC [1, 8]: 364 cells/μL
- CD4+ TC [1, 8]: 195 cells/μL
- CD4+ Th1 TC [1, 8]: 74.6 cells/μL
- CD4+ Th2 TC [1, 8]: 107.0 cells/μL
- CD4+ Th 17 TC [1, 8]: 3.0 cells/μL
- CD4+ Treg [1, 8]: 27.8 cells/μL
- CD4+ cent. mem. TC [1, 8]: 101.3 cells/μL
- CD4+ eff. mem. TC [1, 8]: 13.6 cells/μL
- CD4+ naïve TC [1, 8]: 79.7 cells/μL
- CD8+ TC [1, 8]: 153 cells/μL
- CD8+ cent. mem. TC [1, 8]: 23.2 cells/μL
- CD8+ eff. mem. TC [1, 8]: 41.9 cells/μL
- CD8+ naïve TC [1, 8]: 55.1 cells/μL
- CD8+ term. diff. effector TC [1, 8]: 32.9 cells/μL
- CD16+ CD56+ NKC [1, 8]: 120 cells/μL
- CD3+ TC [1, 9]: 474 cells/μL
- CD4+ TC [1, 9]: 266 cells/μL
- CD4+ Th1 TC [1, 9]: 101.1 cells/μL
- CD4+ Th2 TC [1, 9]: 134.5 cells/μL
- CD4+ Th 17 TC [1, 9]: 5.0 cells/μL
- CD4+ Treg [1, 9]: 28.4 cells/μL
- CD4+ cent. mem. TC [1, 9]: 120.0 cells/μL
- CD4+ eff. mem. TC [1, 9]: 37.2 cells/μL
- CD4+ naïve TC [1, 9]: 108.2 cells/μL
- CD8+ TC [1, 9]: 188 cells/μL
- CD8+ cent. mem. TC [1, 9]: 26.3 cells/μL
- CD8+ eff. mem. TC [1, 9]: 52.0 cells/μL
- CD8+ naïve TC [1, 9]: 71.2 cells/μL
- CD8+ term. diff. effector TC [1, 9]: 38.5 cells/μL
- CD16+ CD56+ NKC [1, 9]: 183 cells/μL
- CD3+ TC [1, 10]: 169 cells/μL
- CD4+ TC [1, 10]: 94 cells/μL
- CD4+ Th1 TC [1, 10]: 38.1 cells/μL
- CD4+ Th2 TC [1, 10]: 45.7 cells/μL
- CD4+ Th 17 TC [1, 10]: 3.0 cells/μL
- CD4+ Treg [1, 10]: 20.7 cells/μL
- CD4+ cent. mem. TC [1, 10]: 43.5 cells/μL
- CD4+ eff. mem. TC [1, 10]: 19.3 cells/μL
- CD4+ naïve TC [1, 10]: 30.6 cells/μL
- CD8+ TC [1, 10]: 74 cells/μL
- CD8+ cent. mem. TC [1, 10]: 9.5 cells/μL
- CD8+ eff. mem. TC [1, 10]: 18.3 cells/μL
- CD8+ naïve TC [1, 10]: 25.6 cells/μL
- CD8+ term. diff. effector TC [1, 10]: 20.6 cells/μL
- CD16+ CD56+ NKC [1, 10]: 86 cells/μL
- NK cells ([1]; month 1-2, then repopulate to normal numbers): moderate decrease
- ALC (lymphocytes; Patient Canada VZV-70056800222530003, 37.7 wk after Shingrix, 28.0 wk after first Mavenclad dose): 800 cells/μL
- ALC (lymphocytes; Patient Finland VZV-70056800221620004, 32.3 wk after Zostavax, 25.9 wk after first Mavenclad dose): 580 cells/μL
